How the values were obtained:
IRAK4 = IRAK4 (Homo sapiens (Human), UniProt Q9NWZ3); assay: IRAK4 ADP-Glo Assay; type: biochemical; settings: read-out: IRAK4 (IC50), MBP substrate
IL23p19 in THP-1 Cells = assay: LPS Induced IL23p19 in THP-1 Cells (with IFNγ Primed) Assay; type: cell-based, human; settings: read-out: IL23 (THP, LPS) (IC50); IFNγ-primed THP-1 cells, 1 μg/mL LPS, 18 hours, IL-23p19 ELISA
TNF-α in human PBMCs = assay: R848-induced TNF-α in human PBMCs Assay; type: cell-based; settings: read-out: TNFα (PBMC, R848) (IC50), 65 ng/mL R848, 4 hours, TNF-α ELISA
[1] = system: TNF-α in Human Primary Monocyte-Derived Dendritic Cells; assay: Gardiquimod-Induced TNF-α in Human Primary Monocyte-Derived Dendritic Cells; type: cell-based; settings: read-out: TNFα (DC, GARD) (IC50); IFNγ-primed monocyte-derived dendritic cells, 4 μg/ml Gardiquimod, 6 hours, TNF-α ELISA

By UniProt entry, the sequences of proteins in these tests, tags left out.
UniProt Q9NWZ3, whole entry: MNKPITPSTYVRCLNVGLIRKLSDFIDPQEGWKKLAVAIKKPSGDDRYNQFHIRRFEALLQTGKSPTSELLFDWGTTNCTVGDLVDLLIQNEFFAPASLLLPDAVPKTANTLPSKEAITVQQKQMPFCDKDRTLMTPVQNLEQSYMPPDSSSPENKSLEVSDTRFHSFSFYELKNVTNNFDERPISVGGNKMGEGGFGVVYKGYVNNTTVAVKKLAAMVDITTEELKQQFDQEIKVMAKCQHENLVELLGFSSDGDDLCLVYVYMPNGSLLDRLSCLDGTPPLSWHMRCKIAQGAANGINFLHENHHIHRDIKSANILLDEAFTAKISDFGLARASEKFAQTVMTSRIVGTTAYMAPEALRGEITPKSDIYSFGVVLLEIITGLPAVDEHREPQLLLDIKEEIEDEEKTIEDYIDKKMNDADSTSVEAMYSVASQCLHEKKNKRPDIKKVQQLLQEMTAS

SMILES	IC50 (IRAK4)	IC50 (IL23p19 in THP-1 Cells)	IC50 (TNF-α in human PBMCs)	IC50 [1]
CC(C)Oc1cc2c(OC[C@@H]3CCC(=O)N3)ncc(C#CC3(O)COC3)c2cc1C(N)=O	5.3 nM	1820 nM	242 nM	533 nM
CC(C)Oc1cc2c(OC[C@@H]3CC(F)(F)C(=O)N3)ncc(C#C[C@H]3C[C@@H](N(C)C)C3)c2cc1C(N)=O	–	84.6 nM	3.7 nM	4.1 nM

— patent US20230391748A1, “BICYCLIC INHIBITORS OF IRAK” (priority 2022, published 2023)
